Here are results for 2 substances from patent publication US20070078085A1, “Methods and compositions for the utilization and targeting of osteomimicry” (priority 2004, published 2007).

One test concerns hOC promoter. Briefly: hOC promoter-luciferase reporter activity in transfected cells. To be noted: recombinant b2M 0-0.6 mg/ml. The test is classed as cell-based, human. An excerpt:
(§1) Plasmid Construction. Genomic DNA was used in the PCR of the 0.8-kb hOC promoter inserting KpnI and XhoI sites, subsequently cloned into pGL3-Basic-luciferase reporter vector (Promega, Madison, Wis.) as described before (9). The deletion constructs, ΔA [374 bp upstream of AP1/VDRE (AV) element], ΔTst-1 (POU-factor Tst-1/Oct-6 binding site), ΔCRE (cAMP-responsive element) and ΔIRF-1 (interferon regulatory factor-i binding site) in hOC promoter/pGL3 were generated by recombinant PCR technique. The point mutation plasmids in CRE (from -643 to -636 in hOC promoter, 5′-TGACCTCA-3′) were constructed with a QuikChange Site-Directed Mutagenesis Kit (Stratagene). […]
(§2) Transfection and Luciferase Activity Assay. […] For luciferase activity assay, 20 μl of the lysate supernatant was mixed with 100 μl of the luciferase substrate (Promega) and detected by a luminometer (Monolight 3010, luminometer PharMingen, San Diego, Calif.). For β-galactosidase activity assay, 100 μl of the supernatant was mixed with 100 μl of 2×β-galactosidase substrate [200 mM sodium phosphate buffer, pH 7.3, 2 mM MgCl2, 100 mM β-mercaptoethanol and 1.33 mg/ml o-nitrophenyl-β-D-galactopyranoside (ONPG)], and incubated at 37° C. for 30 min. β-galactosidase activity was detected by Microplate spectrophotometer (Molecular Devices Corp., Sunnyvale, Calif.) at 405 nm wavelength. […]
For orientation: In a reporter assay the amount or activity of a reporter protein is the signal.

The next test relates to hBSP promoter. Briefly: hBSP promoter-luciferase reporter activity in transfected cells. The test is classed as cell-based, human. The following applies: recombinant b2M 0-0.6 mg/ml.
Description: as §1, §2

Test [1] concerns human prostate cancer cell lines. Briefly: In vitro cell proliferation assay, prostate cancer cells. The class given is cell-based. To be noted: ARCaP, C4-2B, DU145 and LNCaP cells; treated with β2M CM or Neo CM, 4-day. Here is the method: (§3) LNCaP, C4-2B, DU145, PC3, MG63 and ARCaP cell lines were seeded in 96-well plates in T-medium containing 5% FBS, respectively. After 24 h incubation, media were replaced by fresh, serum-free T-medium and incubated for an additional 24 h. The cells were treated with β2M CM or Neo CM for 4-day incubation. Cell numbers were measured every 24 h using CellTiter 96® AQueous One Solution Cell Proliferation Assay (Promega, Madison, Wis.).

A further test relates to MG-63. Briefly: In vitro cell proliferation assay, bone cell line. The class given is cell-based, human. To be noted: MG-63 cells in culture. Here is the method: as §3

For the substance “Recombinant b2M protein: recombinant β2-microglobulin protein”, the hOC promoter activity result with hOC promoter was “stimulated”. In addition, the hBSP promoter activity entry in the test with hBSP promoter is listed as “stimulated”.
For the substance “β2M: soluble protein factor of 11.8 kDa secreted by cancer cells, β2-microglobulin”, the “growth of human prostate cancer cell lines” value in test [1] is listed as “stimulate the growth”. Further, the “growth of bone cell line” value in the test on MG-63 is recorded as “not”.
